Data from patent publication US20250276977A1, “TYK2 INHIBITORS AND USES THEREOF” (Alumis Inc., priority 2019, published 2025).
pKd: −log10 of the molar value.

The chains behind the UniProt entries cited, without tags or fusion partners. Residues count along the entry.
UniProt O60674, 849-1124 limits assumed: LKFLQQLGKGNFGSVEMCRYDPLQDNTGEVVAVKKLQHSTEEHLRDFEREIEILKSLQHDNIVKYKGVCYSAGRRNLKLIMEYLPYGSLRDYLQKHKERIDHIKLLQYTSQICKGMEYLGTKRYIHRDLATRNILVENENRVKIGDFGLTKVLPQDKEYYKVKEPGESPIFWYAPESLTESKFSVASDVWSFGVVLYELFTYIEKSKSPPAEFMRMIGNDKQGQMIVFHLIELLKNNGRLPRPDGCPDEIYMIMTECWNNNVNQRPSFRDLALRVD

Target: T1, JAK2 (JH1 domain) (Homo sapiens, UniProt O60674)
T1 construct: inferred from 'similar to the method' for TYK2 JH2; DiscoverX (KINOMEscan)
Test: JAK2 JH1 domain binding assay (KINOMEscan)

[2H]C([2H])([2H])NC(=O)c1nnc(NC(=O)C2CC2)cc1Nc1cccc(-c2ncn(C)n2)c1OC [control, BMS-986165, reference compound]
pKd: 5.68
